Laboratory results published in PubChem BioAssay AID588475 (Sanford-Burnham Center for Chemical Genomics, 2011).
The entries are a selection whose mix differs from that of the whole data set. Calls of active or inactive are those of the source.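 How the source made its calls: active means inhibition of the ligand-induced calcium signal above about 50% at the single tested concentration (limit read from the data); inactive means the rest.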

assay: blockers of CRF-evoked CRF-R2/CRF-BP calcium response – cell-based, HEK293, calcium dye fluorescence, uHTS, primary screen (AID 588475); details: CRF-induced calcium fluorescence, at 11.8 µM, stronger effect = higher value

SMILES	inhibition
CP(=O)(Nc1cccc(Br)c1)Oc1ccccc1 (configuration not stated)	inactive: -15.6%
Cc1ccc(C)c(NP(C)(=O)Oc2ccccc2)c1 (configuration not stated)	inactive: 1.52%
O=[N+]([O-])c1cc([N+](=O)[O-])c(-n2nnc3ccccc32)c([N+](=O)[O-])c1	inactive: 12.5%
O=[N+]([O-])c1cc([N+](=O)[O-])c(-c2cnn(-c3ccccc3)c2)c([N+](=O)[O-])c1	inactive: 10.1%
Cc1nc2ccc3ccccc3c2s1.O=[N+]([O-])c1cc([N+](=O)[O-])c(O)c([N+](=O)[O-])c1	inactive: 25.7%
CCOC(=O)C(CC)C1=NC(C)(C)Cc2ccccc21.O=[N+]([O-])c1cc([N+](=O)[O-])c(O)c([N+](=O)[O-])c1 (configuration not stated)	inactive: 8.85%
CC1=C2N=C(C=C3N=C(C(C)=C4[N-][C@@](C)([C@@H]5N=C1[C@](C)(CCC(=O)NC[C@@H](C)OP(=O)([O-])O[C@H]1[C@@H](O)[C@@H](n6cnc7cc(C)c(C)cc76)O[C@@H]1CO)[C@H]5CC(N)=O)[C@@](C)(CC(N)=O)[C@@H]4CCC(N)=O)[C@@](C)(CC(N)=O)[C@@H]3CCC(N)=O)C(C)(C)[C@@H]2CCC(N)=O.[C-]#N.[Co+3]	inactive: 15.5%
O=[N+]([O-])c1cc([N+](=O)[O-])c(Nc2nnnn2CCO)c([N+](=O)[O-])c1	inactive: 14.6%
CN1CCCCC1COC(=O)C1(O)c2ccccc2CCc2ccccc21 (configuration not stated)	inactive: 4.07%
COc1ccccc1OP(C)(=O)Nc1c(C)cccc1C (configuration not stated)	inactive: 0.9%
CCCOc1ccc(NP(C)(=O)Oc2ccc(Cl)cc2)cc1 (configuration not stated)	inactive: -11.5%
CP(=O)(Nc1ccc(SC(F)(F)F)cc1)Oc1ccccc1 (configuration not stated)	inactive: -13.5%
CP(=S)(Nn1cnnc1)Oc1ccccc1 (configuration not stated)	inactive: 2.07%
COc1ccccc1OP(C)(=O)Nc1ccccc1 (configuration not stated)	inactive: 3.58%
CP(=O)(Nc1ccccc1Br)Oc1ccccc1 (configuration not stated)	inactive: -17.3%
CP(=O)(Oc1ccccc1)OC(c1ccccc1)C(F)(F)F (configuration not stated)	inactive: 4.72%
CP(=O)(Nc1ccc(SC(F)(F)F)cc1)Oc1ccc(Cl)cc1 (configuration not stated)	inactive: -10%
Cc1ccc(Nc2c([N+](=O)[O-])cc([N+](=O)[O-])cc2[N+](=O)[O-])cc1	inactive: 39.7%
Cc1cccc(C)c1OP(C)(=O)Nc1ccc(SC(F)(F)F)cc1 (configuration not stated)	inactive: -40.2%

SMILES	inhibition
Cc1cc(C)cc(OP(C)(=O)Nc2ccc(SC(F)(F)F)cc2)c1 (configuration not stated)	inactive: -56.9%
CP(=O)(NC(=O)Nc1ccccc1)Oc1ccccc1 (configuration not stated)	inactive: 7.63%
CCc1ccc(OP(C)(=O)N2CCN(c3ccc([N+](=O)[O-])cc3)CC2)cc1 (configuration not stated)	inactive: -4.46%
CCOP(C)(=S)SCC(=O)NC(C)C(=O)O (configuration not stated)	inactive: -10.6%
O=[N+]([O-])c1cc([N+](=O)[O-])c(O)c([N+](=O)[O-])c1.c1ccc(Oc2ccncc2)cc1	inactive: 25.4%
CCOC(=O)c1ccc(NP(C)(=O)Oc2ccc(OC)cc2)cc1 (configuration not stated)	inactive: -12.1%
CP(=O)(Nc1ccccn1)Oc1ccc(Cl)cc1 (configuration not stated)	inactive: 17.2%
CCN(CC)CCCOC(=O)C(O)(c1ccccc1)c1ccccc1	inactive: -17.4%
O=[N+]([O-])c1cc([N+](=O)[O-])c(Nc2cccnc2)c([N+](=O)[O-])c1	active: 59.7%
Cc1cccc(C)c1OP(C)(N)=O (configuration not stated)	inactive: 2.82%
CC(C)(C)c1ccc(OP(C)(=O)Nc2ccc(SC(F)(F)F)cc2)cc1 (configuration not stated)	inactive: -73.4%
O=[N+]([O-])c1ccc2c(c1)C=Nc1ccccc1O2	inactive: 18.7%
CCOC(=O)c1ccc(NP(C)(=O)Oc2ccccc2)cc1 (configuration not stated)	inactive: -3.17%
Cc1ccc(NP(C)(=O)Oc2ccccc2)c(C)c1 (configuration not stated)	inactive: -4.11%
COc1ccccc1OP(C)(=O)Nc1ccc(C)cc1 (configuration not stated)	inactive: -0.61%
COc1ccc(OP(C)(=O)Nc2cccc(F)c2)cc1 (configuration not stated)	inactive: 18%
COc1ccccc1OP(C)(=O)Nc1cc(Cl)ccc1C (configuration not stated)	inactive: -4.73%
Cc1cc(C)cc(OP(C)(N)=O)c1 (configuration not stated)	inactive: 13.7%
